# According to PubChem BioAssay AID1259312 (Keith Lab, Institute of Cancer Science, University of …, 2017):
# Only a part is listed here, and it is no random draw. Active and inactive are the calls of the source.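 How the source made its calls: active means cell survival measured by absorbance rises more than 2.5-fold over infected cells without compound; inactive means the rest.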
# Assay: survival after telomere uncapping, modulators, primary screen, cell-based (AID 1259312);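 further: virus expresses mutant telomerase RNA that uncaps telomeres and kills cells; compound added 2 days after infection so exposure lasts 3 days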
# Conditions: HCT116 + Ad-hTR-mut, MTT, 5 d, at 10 µM, stronger effect = higher value
row,Structure (SMILES),fold change
1,Cc1c(Br)c([N+](=O)[O-])nn1[N+](=O)[O-],inactive: -1.74
2,O=[N+]([O-])c1cc(Cl)ccc1NCCNc1c([N+](=O)[O-])cc(C(F)(F)F)cc1[N+](=O)[O-],inactive: -2.05
3,O=c1[nH]nc(SCCOS(=O)(=O)O)c(=O)[nH]1,inactive: -1.16
4,CN1CC(=O)N/C1=N\P(=O)(OCc1ccccc1)OCc1ccccc1,inactive: 1.2
